Assay results as given in article PMC10622513, “A fluorogenic, peptide-based probe for the detection of Cathepsin D in macrophages” (Communications Chemistry, 2023).

The chains behind the UniProt entries cited, without tags or fusion partners. Residues count along the entry.
UniProt P07339, 65-412: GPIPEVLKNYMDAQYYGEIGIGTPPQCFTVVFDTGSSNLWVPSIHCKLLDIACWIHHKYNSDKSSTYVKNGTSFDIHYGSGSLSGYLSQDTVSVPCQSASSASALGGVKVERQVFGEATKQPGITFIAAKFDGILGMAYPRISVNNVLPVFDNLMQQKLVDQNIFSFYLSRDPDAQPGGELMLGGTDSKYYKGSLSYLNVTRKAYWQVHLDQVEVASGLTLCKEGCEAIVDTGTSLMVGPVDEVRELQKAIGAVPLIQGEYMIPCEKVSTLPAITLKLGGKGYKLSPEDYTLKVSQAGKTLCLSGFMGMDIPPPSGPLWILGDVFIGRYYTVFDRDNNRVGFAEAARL

Biological target: T1, CatD (Homo sapiens, UniProt P07339)
T1 construct: purchased Athens Biotechnology
Assay: Inhibition of CatD activation of CatD-P3 (Fig. 3b)
Assay type: biochemical
Conditions: Pepstatin A 20 μM, CatD 50 nM, CatD-P3 20 μM, n = 3
Protocol: The time-dependent increase in fluorescence was monitored over 1 or 2 h using a fluorescence microplate reader at 37 °C. CatD-P3 (20 μM), 50 mM NaOAc, pH 4.0 buffer, enzymes (5 or 50 nM) and inhibitor Pepstatin A, where appropriate, were incubated in the wells for 30 min at 37 °C before adding the probe. Readings were taken immediately after addition of the probe and after every 30 s (the plate was shaken for 3 s before the start of the readings).
Probe CatD-P3 (20 μM) was incubated with or without Cat D (50 nM) in presence of absence of pepstatin A (20 μM), in the corresponding reaction buffer for 1.5 h. The mixture (25 μL) was then diluted to a final volume of 150 μL in a quartz cuvette. Emission spectrum readings were recorded in a spectrofluorometric range from 500 to 700 nm, with an excitation wavelength of 490 nm.

## Pepstatin A
  inhibition of CatD-P3 activation by CatD: efficiently inhibited
